Data published in patent publication US8598210B2, “Prolyl hydroxylase inhibitors and methods of use” (Akebia Therapeutics Inc., priority 2006, dated 2013).

The chains behind the UniProt entries cited, without tags or fusion partners. Where a name states a change or a piece, a line headed by the entry shows the natural chain unless it says otherwise. Residues count along the entry.
UniProt Q9GZT9, 179-426: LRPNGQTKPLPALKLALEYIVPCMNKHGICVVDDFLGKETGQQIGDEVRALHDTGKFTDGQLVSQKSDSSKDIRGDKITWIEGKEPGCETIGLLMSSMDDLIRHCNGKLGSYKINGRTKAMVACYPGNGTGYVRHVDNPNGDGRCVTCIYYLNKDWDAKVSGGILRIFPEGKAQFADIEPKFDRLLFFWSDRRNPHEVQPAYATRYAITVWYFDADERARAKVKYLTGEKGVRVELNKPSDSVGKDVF
UniProt Q9H6Z9: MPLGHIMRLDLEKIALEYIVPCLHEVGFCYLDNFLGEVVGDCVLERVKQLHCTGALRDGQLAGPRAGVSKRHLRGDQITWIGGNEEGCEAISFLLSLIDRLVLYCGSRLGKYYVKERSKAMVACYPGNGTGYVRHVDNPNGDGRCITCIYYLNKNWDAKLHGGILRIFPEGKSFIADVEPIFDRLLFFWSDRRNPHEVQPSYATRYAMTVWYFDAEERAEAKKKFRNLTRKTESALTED

How the values were obtained:
[1] = molecular target: Recombinant human EGLN-1-179/426 (Homo sapiens (Human), UniProt Q9GZT9); test: EGLN-1 Activity Assay (MALDI-TOF MS); format: biochemical; settings: read-out: EGLIN1 IC50
Protocol: (§1) Hydroxylated peptide product is identified from substrate by the gain of 16 Da. Data defined as percent conversion of substrate to product is analyzed in GraphPad Prism 4 to calculate IC50 values.

[2] = molecular target: Full-length recombinant human EGLN-3 (His-MBP-TVMV-EGLN-3 fusion) (Homo sapiens (Human), UniProt Q9H6Z9); test: EGLN-3 enzyme activity assay (MALDI-TOF MS); format: biochemical; settings: read-out: EGLIN3 IC50
Protocol: as §1

| Compound | IC50 ([1]; trifluoroacetic acid salt) [nM] | IC50 [1] [nM] | IC50 [2] [nM] |
| --- | --- | --- | --- |
| O=C(O)CNC(=O)c1ncc(-c2cccc(Cl)c2)cc1O [{[5-(3-Chlorophenyl)-3-hydroxypyridine-2-carbonyl]amino}-acetic acid trifluoroacetic acid salt] | 410 | – | – |
| O=C(O)CNC(=O)c1ncc(-c2cccc(Cl)c2)cc1O [{[5-(3-Chlorophenyl)-3-hydroxypyridine-2-carbonyl]amino}-acetic acid] | – | 1100 | 390 |

Where a name gives a salt, the structure may show the parent alone. Read-outs that look alike come from different tables or passages of the source.
